# Measurements as given in PubChem BioAssay (NCATS).
# Amino acid sequences for entries named in this document (tags omitted).
# UniProt P01375, whole entry: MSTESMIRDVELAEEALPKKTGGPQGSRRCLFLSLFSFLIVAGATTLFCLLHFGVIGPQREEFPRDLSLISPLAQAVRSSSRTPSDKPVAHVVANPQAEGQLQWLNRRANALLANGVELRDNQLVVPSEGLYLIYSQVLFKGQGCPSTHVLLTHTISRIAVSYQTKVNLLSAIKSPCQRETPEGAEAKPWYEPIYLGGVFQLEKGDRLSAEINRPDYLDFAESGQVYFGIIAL
# UniProt Q07869, whole entry: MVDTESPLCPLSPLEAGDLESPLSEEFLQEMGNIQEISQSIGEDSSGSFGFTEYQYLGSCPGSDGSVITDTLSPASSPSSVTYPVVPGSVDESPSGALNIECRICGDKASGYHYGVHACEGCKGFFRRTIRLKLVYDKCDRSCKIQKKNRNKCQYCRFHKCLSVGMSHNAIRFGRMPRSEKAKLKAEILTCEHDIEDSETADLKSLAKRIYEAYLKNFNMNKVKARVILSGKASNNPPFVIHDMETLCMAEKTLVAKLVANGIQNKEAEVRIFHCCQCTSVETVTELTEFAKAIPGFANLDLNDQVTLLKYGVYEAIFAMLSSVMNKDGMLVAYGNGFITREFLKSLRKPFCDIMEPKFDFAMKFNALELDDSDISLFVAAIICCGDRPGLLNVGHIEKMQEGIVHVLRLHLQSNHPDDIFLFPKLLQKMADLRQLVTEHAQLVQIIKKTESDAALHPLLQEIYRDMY
# UniProt P51449, whole entry: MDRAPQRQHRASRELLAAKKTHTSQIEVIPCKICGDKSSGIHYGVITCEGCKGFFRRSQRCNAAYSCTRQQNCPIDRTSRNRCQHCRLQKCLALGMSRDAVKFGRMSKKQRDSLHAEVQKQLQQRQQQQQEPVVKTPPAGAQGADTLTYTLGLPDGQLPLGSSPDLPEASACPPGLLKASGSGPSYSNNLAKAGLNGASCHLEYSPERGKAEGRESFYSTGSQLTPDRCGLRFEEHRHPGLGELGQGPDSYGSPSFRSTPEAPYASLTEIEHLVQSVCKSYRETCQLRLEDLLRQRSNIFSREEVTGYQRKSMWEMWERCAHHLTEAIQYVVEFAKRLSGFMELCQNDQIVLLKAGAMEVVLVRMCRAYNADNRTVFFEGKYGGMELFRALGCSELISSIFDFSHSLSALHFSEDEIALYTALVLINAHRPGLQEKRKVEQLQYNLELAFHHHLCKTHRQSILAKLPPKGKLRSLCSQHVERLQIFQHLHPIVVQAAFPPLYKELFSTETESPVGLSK
# Values joined by “and” are separate entries in the source; they are usually repeats but may differ in a detail not shown here. Equal entries are not always repeated. This is a selection; strong and weak results do not stand in their true shares. Inconclusive results are not listed. For part of these data: Results with a measured potency or affinity are listed apart. Active and inactive are the calls of the source. Unless noted, calls follow the shape of the dose curve; as a rule, active = well fitted curve in the direction sought with a large enough effect; inconclusive = small, poorly fitted or top-dose-only effect, or another doubt; inactive = no such curve, though single readings can be large; an effect the other way counts as inactive or inconclusive.
# Tests used:
# [1] = qHTS assay for small molecule activators of the nuclear factor-kappa B (NF-kB) signaling pathway (AID 651749; active = well fitted activation curve with a large enough effect in the signal ratio; the % refers to the signal ratio; also: % of control where 0% means no effect); settings: NF-kB-bla ME-180 cells, beta-lactamase FRET ratio, 16 h; stronger effect = higher value
# Procedure, shortened: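 In this qHTS format, compounds acting as activators increase NF-kB-driven beta-lactamase in ME-180 cells, measured as disrupted FRET after 16 hr exposure at 37C and 5% CO2.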
# [2] = qHTS assay for small molecule disruptors of the mitochondrial membrane potential - 1 hr assay (AID 651754; calls by dose curve; also: % is scaled to controls: 0 for no effect and ±100 for the full control effect; nearly all actives have a fitted effect of over 35% in size); settings: HepG2 mitochondrial membrane potential, JC-1 ratio 590/535, 1 h; at 92.2 µM (top of the series)
# Procedure, shortened: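 Loss of mitochondrial potential shifts the cationic dye from red mitochondrial aggregates to green cytoplasmic monomers. Cells (HepG2) are treated with compound for 1 hr before a 30 min dye incubation at 37C.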
# [3] = qHTS assay for small molecule disruptors of the mitochondrial membrane potential - 5 hr assay (AID 651755; calls by dose curve; also: % is scaled to controls: 0 for no effect and ±100 for the full control effect; nearly all actives have a fitted effect of over 40% in size); settings: JC-1-type ratio dye; at 92.2 µM (top of the series)
# [4] = target: Tumor necrosis factor (Homo sapiens) (UniProt P01375); experiment: qHTS assay to identify small molecules that stimulate Tumor Necrosis Factor-alpha (TNF-alpha) secretion (AID 651757; active = well fitted curve in the direction sought with a large enough effect in the signal ratio; the % refers to the signal ratio; also: 0% is about no effect); settings: Human cells, HTRF 665/615 ratio; at 92.2 µM (top of the series)
# Procedure, shortened: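 Human monocytic THP-1 cells are plated, treated with compound and held at 37 C for 17 hrs. Labeled anti-TNF-alpha antibody mixture is then added; after 3 hr at room temperature, TR-FRET signal reports secreted TNF-alpha.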
# [5] = qHTS assay to identify small molecules that stimulate interleukin-8 (IL-8) secretion (AID 651758; active = well fitted activation curve with a large enough effect in the signal ratio; the % refers to the signal ratio; also: potency is read from the fitted curve at half-maximal effect; as to activation: 0% is about no effect); settings: HTRF ratio (665/615); series mostly up to 92.2 µM
# Procedure, shortened: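 Compounds are added to THP-1 cells (2000 per well) and left 16 hrs at 37 C. A labeled anti-IL-8 antibody pair is then added, and IL-8 secretion is measured by time-resolved FRET after 1-3 hrs at room temperature.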
# [6] = qHTS assay for environmental chemicals that activate the Aryl hydrocarbon Receptor (AhR) signaling pathway (AID 651777); settings: 1A2-DRE human hepatoma cells, luciferase, 24 h; stronger effect = higher value; also: % of control where 0% means no effect; nearly all actives have a fitted effect of over 15% in size
# Procedure, shortened: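 Luminescence read-out: One-Glo added for 30 min at RT after 24 hr compound treatment (37 C, 5% CO2) of human hepatoma cells expressing a DRE/CYP1A2 promoter–luciferase reporter; increased signal indicates AhR activation.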
# [7] = target: Peroxisome proliferator-activated receptor alpha (Homo sapiens) (UniProt Q07869); experiment: qHTS assay for small molecule agonists of the peroxisome proliferator-activated receptor alpha (PPARalpha) signaling pathway (AID 651778); settings: PathHunter PPARalpha complementation, chemiluminescence, 6 h; stronger effect = higher value; also: % of control where 0% means no effect
# Procedure, shortened: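 Enzyme-fragment complementation assay in which ligand-bound PPARalpha translocates and forms an active enzyme that generates chemiluminescence. Cells were plated overnight, exposed to compound for 6 hr at 37 C, and then given detection reagent for 60 min at room temperature.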
# [8] = target: Nuclear receptor ROR-gamma (Homo sapiens) (UniProt P51449); experiment: qHTS assay for small molecule antagonists of the retinoid-related orphan receptor gamma (ROR-gamma) signaling pathway (AID 651802); settings: ROR-gamma antagonist cell reporter assay; series mostly up to 92.2 µM; also: nearly all actives have a fitted effect of over 60% in size; also: potency is read from the fitted curve at half-maximal effect
# [9] = qHTS assay for small molecule agonists of the antioxidant response element (ARE) signaling pathway measured by Nrf2-dependant transcriptional activity (AID 720636; active = well fitted curve in the direction sought with a large enough effect in the repeat runs; an effect the other way counts as inactive or inconclusive;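 also: HepG2 cells with an ARE-driven luciferase reporter; % of control where 0% means no effect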); settings: ARE-luc HepG2, Nrf2 luciferase reporter, 16 h; at 92.4 µM (top of the series)
# Procedure, shortened: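 HepG2 ARE-luc reporter line, 1% dialyzed FBS; 6 hr attachment at 37 C, compound pinned in, 16 hr at 37 C/5% CO2; ONE-Glo, 30 min RT, luminescence read.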
# [10] = qHTS for compounds that reverse cellular toxicity of Amyloid beta (A-beta) peptide in yeast: LOPAC Validation Assay (AID 720559); settings: yeast expressing A-beta; at 46.1 µM (top of the series);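 also: plate controls were DMSO for no effect and equimolar ferric chloride plus clioquinol rescue for full effect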
# Procedure, shortened: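 Medium dispensed, compounds pinned, A-beta yeast suspension added; plates held at 30 C for 48 hr; absorbance measured at 600 nm to gauge growth; values scaled between DMSO and FeCl3/clioquinol (equimolar) controls.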
SMILES,activation [1],"ratio change, negative = depolarisation [2]","ratio change, negative = disruption [3]",activation (TNF-alpha secretion) [4],Potency [5],activation [6],max response [7],Potency [8],activation [9],"growth rescue, positive = activation [10]"
CCOP(=O)(CC)OCC,inactive: 0.0333%,inactive: -1.86%,inactive: -1.14%,inactive: -0.113%,inactive,inactive: 0.285%,inactive: -5.88%,inactive,inactive: -0.929%,
Cc1cccc([N+](=O)[O-])c1[N+](=O)[O-],inactive: -2.1% and inactive: -0.897%,,inactive: -0.854%,inactive: 2.39%,active: 66.8 µM,inactive: 0.444% and inactive: 6.58%,inactive: 0.411% and inactive: -0.396%,active: 42.2 µM,,
CN(N=O)C(=N)N[N+](=O)[O-],,inactive: 1.02%,inactive: 0.296%,,,,,,,
Cc1c([N+](=O)[O-])cccc1[N+](=O)[O-],inactive: -0.445% and inactive: 0.197%,inactive: -0.891%,inactive: 0.302%,inactive: 0.0994%,inactive,inactive: -0.631% and inactive: 0.153%,inactive: -4.47% and inactive: -1.92%,,inactive: 1.52% and inactive: 0.414%,
Cc1ccc([N+](=O)[O-])c([N+](=O)[O-])c1,inactive: 0.0911% and inactive: 0.409%,,,inactive: 2.91%,,inactive: 2.65% and inactive: 3.43%,,inactive,,
Cc1ccc([N+](=O)[O-])cc1[N+](=O)[O-],inactive: -1.91% and inactive: -0.703%,inactive: -12.5%,inactive: -5.34%,inactive: -0.063%,,inactive: 1.41% and inactive: 1.24%,inactive: -2.32% and inactive: -0.547%,inactive,inactive: -0.002% and inactive: 1.32%,
CCOP(=S)(CC)Oc1cc(Cl)c(Cl)cc1Cl (configuration not stated),inactive: 0.487%,,,,,inactive: 10.2%,inactive: -0.255%,,inactive: 0.145%,
O=[N+]([O-])[O-].[NH4+],inactive: -0.637%,inactive: 0.513%,inactive: -3.81%,inactive: 0.471%,inactive,inactive: 2.01%,inactive: 5.46%,,inactive: -1.73%,
[NH4+].[O-][Cl+3]([O-])([O-])[O-],inactive: -0.251%,,,inactive: 0.0762%,,inactive: -1.37%,inactive: 8.2%,,inactive: -0.845%,
CCC(C)(OO)OOC(C)(CC)OO (configuration not stated),inactive: -0.632% and inactive: -0.603%,inactive: -1.56%,inactive: -0.416%,inactive: -0.146%,,inactive: -0.147% and inactive: 1.34%,inactive: 0.629% and inactive: 0.393%,active: 29.8 µM,inactive: -0.0362%,
N#[O+].[C-]#N.[C-]#N.[C-]#N.[C-]#N.[C-]#N.[Fe+2].[Na+].[Na+],,,,,,,,,,inactive: -12%
O=[N+]([O-])c1cccc([N+](=O)[O-])c1,inactive: 0.607% and inactive: -0.151%,inactive: 6.52%,inactive: 1.82%,inactive: 0.998%,,inactive: 1.84% and inactive: 3.22%,inactive: 0.356% and inactive: -6.84%,inactive,inactive: -0.0482%,
